Assay results published in patent publication US20220177587A1, “METHODS AND USES OF VARIANT CD80 FUSION PROTEINS AND RELATED CONSTRUCTS” (Alpine Immune Sciences, Inc., priority 2018, published 2022).

Protein sequences, listed by entry. Tags and fused reporters are not part of them. Residues count along the entry.
UniProt Q9NZQ7, 19-290: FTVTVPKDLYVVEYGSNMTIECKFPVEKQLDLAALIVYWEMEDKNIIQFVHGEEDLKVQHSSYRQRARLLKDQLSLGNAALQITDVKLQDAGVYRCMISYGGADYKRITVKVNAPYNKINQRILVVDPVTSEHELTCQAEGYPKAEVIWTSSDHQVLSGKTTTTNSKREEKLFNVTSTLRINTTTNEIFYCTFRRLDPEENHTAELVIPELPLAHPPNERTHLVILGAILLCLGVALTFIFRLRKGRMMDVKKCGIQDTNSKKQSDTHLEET
UniProt P16410, 36-223: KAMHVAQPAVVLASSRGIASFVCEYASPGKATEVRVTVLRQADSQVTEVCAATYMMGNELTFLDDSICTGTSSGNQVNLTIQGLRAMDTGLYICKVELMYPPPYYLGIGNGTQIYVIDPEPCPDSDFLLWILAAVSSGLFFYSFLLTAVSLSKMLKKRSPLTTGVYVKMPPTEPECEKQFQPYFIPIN

Tests used:
[1] = molecular target: huPD-L1 (Homo sapiens, UniProt Q9NZQ7); test: Flow binding to CHO cells stably expressing PD-L1; design: huCTLA4 and huPD-L1, full-length mammalian surface expression constructs were generated; expressed in transfected cells; host or cells: CHO cells, lentiviral transduction, sorted to >98% purity; settings: Table E31
Procedure: (§1) Binding of selected immunomodulatory fusion proteins to cognate binding partners was assessed. […] Cells were sorted in a Bio-Rad S3 Cell Sorter (Bio-Rad Corp., USA) to >98% purity. Jurkat/IL2 reporter cells, which endogenously express CD28, were used to detect binding to CD28.
(§2) For staining and analysis by flow cytometry, 100,000 cells of appropriate transfected cells were plated in 96-well round bottom plates. Cells were spun down and resuspended in staining buffer (phosphate buffered saline (PBS), 1% bovine serum albumin (BSA), and 0.1% sodium azide) for 20 minutes to block non-specific binding. […] Primary staining was performed on ice for 45 minutes, before washing cells in staining buffer twice. Phycoerythrin (PE)-conjugated anti-human Fc (Jackson ImmunoResearch, USA) was diluted 1:150, added to cells and incubated another 30 minutes on ice. Cells were then washed twice with 150 μL/well stain buffer, fixed in 2% formaldehyde/PBS, and analyzed on Intellicyt flow cytometer (Intellicyt Corp., USA). PE Mean Fluorescence Intensity (MFI) was calculated for each cell type with FlowJo Version 10 software (FlowJo LLC, USA).
(§3) Binding assays were carried out to assess the specificity and affinity of multivalent proteins to cell-expressed CTLA-4, CD28, and PD-L1 counter structures.
(§4) The EC50 for binding also was determined.

[2] = molecular target: huCTLA4 (Homo sapiens, UniProt P16410); test: Flow binding to CHO cells stably expressing CTLA4; design: huCTLA4 and huPD-L1, full-length mammalian surface expression constructs were generated; expressed in transfected cells; host or cells: CHO cells, lentiviral transduction, sorted to >98% purity; settings: Table E31; flow binding to CHO cells stably expressing CTLA4; read-out: CTLA4 EC50
Procedure: as §1, §2, §3, §4

[3] = molecular target: CD28 (Homo sapiens, UniProt P10747); test: Flow binding to Jurkat/IL2 reporter cells (CD28); design: host or cells: Jurkat cells expressing an IL-2-luciferase reporter; settings: Table E31; flow binding to Jurkats (CD28)
Procedure: as §1, §2, §3, §4

EC50 [1]: 3.6 nM
EC50 [2]: 1.3 nM
EC50 [3]: 6.5 nM
B1: CD80 IgV-Fc (protein)
chain: VIHVTKEVKEVATLSCGHNVSVEELAQTRIYWQKEKKMVLTMMSGDMNIWPEYKNRTIFDITNNLSIVILALRPSDEGTYECVVLKYEKDAFKREHLAEVTLSVKAD
modifications: left off: a dimerising Fc or GST; small tags and cut ends
